These results are taken from PubChem BioAssay AID1347165 (National Center for Advancing Translational Sciences (NCATS), 2019).

Chains of the proteins cited; added tags and fusions are not shown.
UniProt Q9UGL1, whole entry: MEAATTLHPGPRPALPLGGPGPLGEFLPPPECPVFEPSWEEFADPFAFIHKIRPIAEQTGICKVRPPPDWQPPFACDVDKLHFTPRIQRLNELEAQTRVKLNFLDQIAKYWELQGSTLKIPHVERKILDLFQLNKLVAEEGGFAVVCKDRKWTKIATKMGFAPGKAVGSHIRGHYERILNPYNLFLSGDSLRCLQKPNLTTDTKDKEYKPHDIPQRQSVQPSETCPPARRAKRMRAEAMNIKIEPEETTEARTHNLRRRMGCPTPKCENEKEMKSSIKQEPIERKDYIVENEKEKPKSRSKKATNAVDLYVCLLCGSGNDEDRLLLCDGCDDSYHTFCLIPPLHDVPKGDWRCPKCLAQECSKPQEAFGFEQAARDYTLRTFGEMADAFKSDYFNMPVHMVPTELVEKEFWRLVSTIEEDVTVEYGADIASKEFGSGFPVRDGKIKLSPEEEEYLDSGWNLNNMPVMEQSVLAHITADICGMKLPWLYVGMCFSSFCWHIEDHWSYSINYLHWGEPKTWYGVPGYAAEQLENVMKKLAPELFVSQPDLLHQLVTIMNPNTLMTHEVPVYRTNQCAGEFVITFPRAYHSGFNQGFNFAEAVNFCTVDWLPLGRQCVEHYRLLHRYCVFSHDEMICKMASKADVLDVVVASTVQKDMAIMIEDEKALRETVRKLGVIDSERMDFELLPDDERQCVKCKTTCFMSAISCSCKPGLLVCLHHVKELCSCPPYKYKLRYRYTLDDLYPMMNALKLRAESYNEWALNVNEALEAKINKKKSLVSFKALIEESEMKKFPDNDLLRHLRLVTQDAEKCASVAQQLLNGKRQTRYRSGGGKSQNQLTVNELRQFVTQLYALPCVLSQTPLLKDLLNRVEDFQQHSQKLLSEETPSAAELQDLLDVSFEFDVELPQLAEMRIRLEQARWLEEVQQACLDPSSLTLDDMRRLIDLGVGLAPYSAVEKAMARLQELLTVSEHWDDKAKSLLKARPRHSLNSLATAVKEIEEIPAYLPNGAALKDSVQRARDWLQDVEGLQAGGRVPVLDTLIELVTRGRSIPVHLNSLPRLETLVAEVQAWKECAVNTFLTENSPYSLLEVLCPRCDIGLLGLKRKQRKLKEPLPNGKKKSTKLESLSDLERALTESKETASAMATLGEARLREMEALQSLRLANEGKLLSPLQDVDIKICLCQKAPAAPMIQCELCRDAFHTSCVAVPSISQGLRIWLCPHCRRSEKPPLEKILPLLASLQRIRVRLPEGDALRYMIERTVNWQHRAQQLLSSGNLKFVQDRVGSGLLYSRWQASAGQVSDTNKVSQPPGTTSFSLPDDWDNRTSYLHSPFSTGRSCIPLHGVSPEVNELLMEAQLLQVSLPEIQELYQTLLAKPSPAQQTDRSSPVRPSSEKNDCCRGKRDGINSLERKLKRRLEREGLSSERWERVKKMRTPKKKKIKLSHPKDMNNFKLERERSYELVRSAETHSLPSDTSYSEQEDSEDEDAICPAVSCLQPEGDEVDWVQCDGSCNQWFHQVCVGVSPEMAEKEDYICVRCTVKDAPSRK

Only a part is listed here, and it is no random draw. Results filed as inconclusive are left out. Activity calls are given as the source filed them. Calls come from the whole dose curve; as a rule, active = well fitted inhibition curve with a large enough effect; inconclusive = small, poorly fitted or top-dose-only effect; inactive = no such curve, though single readings can be large or run the other way.

The target of the test is Lysine-specific demethylase 5B (Homo sapiens) (UniProt Q9UGL1). Description: Primary screen for KDM5B Histone Demethylases FDH-coupled qHTS. Note: 0% is about no effect; nearly all actives have a fitted effect of over 70% in size. Conditions: FDH-coupled NADH fluorescence (FDH is formaldehyde dehydrogenase); at 57.7 µM (top of the series). An excerpt:
Assay Submitter (PI): Qin Yan, Ph.D. (Yale University) and Xiaodong Cheng, Ph.D. (MD Anderson) This project was funded as part of the NCI NEXT Program and Chemical Biology Consortium (CBC) The histone demethylases, KDM5A and KDM5B catalyze the demethylation of lysine 4 on histone H3 (H3K4me3/2). They are overexpressed in a variety of cancers and have been implicated in cancer cell growth, metastasis, drug resistance, and tumor growth. KDM5A is amplified and overexpressed in breast and gastric cancer; and is translocated in leukemia. While KDM5B is highly expressed in human mammary tumors and breast cancer cell lines, but not in normal adult breast tissue. Moreover, knockdown of KDM5B leads to upregulation of tumor suppressor genes, including BRCA1. The goal of this project is to employ qHTS to identify selective small molecule inhibitors of KDM5A/B demethylase activity to better understand the role of KDM5 in cancer and to develop novel therapies. We employed an FDH-coupled assay previously reported by Sakurai et al. to monitor in vitro KDM5 demethylase activity. Compounds showing dose response inhibition are re-acquired, validated, and tested for non-specific interference with the formaldehyde dehydrogenase (FDH) counterscreen. […]
Materials: 1536-well Black, solid bottom, medium binding assay plate is purchased from Greiner Bio-one. […] The assay plate is incubated for 10 min at room temperature followed by addition of 1uL substrate mix (buffer + 100uM ascorbic acid, 50uM ferrous ammonium sulfate, 12.5uM H3K4Me3, 25uM a-ketoglutarate, 0.25 mM NAD+, 0.25 U/mL formaldehyde dehydrogenase using the FRD yielding a total reaction volume of 4 uL. Initial fluorescence (Read1) is detected using the PerkinElmer ViewLux plate reader equipped with 340 nm excitation and 450 nm emission filters. The final fluorescence (Read2) signal is obtained after 30 min of room temperature incubation. Delta RFU is calculated (Read2 - Read1) and is used to generated dose response curves.
(In qHTS, concentration-response curves come from the screen itself.)
`CCCCCOc1ccc(NP(C)(=O)Oc2ccc(Cl)cc2Cl)cc1` (stereo not drawn): the activity change, negative = inhibition is inactive: -0.953%.
The same measure for `CCc1ccc(OP(C)(=O)N2CCN(c3ccc([N+](=O)[O-])cc3)CC2)cc1` (stereo not drawn): inactive: -0.904%.
Regarding `O=[N+]([O-])c1cc([N+](=O)[O-])c(-c2cnn(-c3ccccc3)c2)c([N+](=O)[O-])c1`, the activity change, negative = inhibition is inactive: -8.11%.
